Results on one compound are retold here after PubChem BioAssay AID651725 (National Center for Advancing Translational Sciences (NCATS), 2012).

Amino acid sequences for entries named in this document (tags omitted). A change or cut given only in a name is not applied to a line headed by its entry.
UniProt Q15475: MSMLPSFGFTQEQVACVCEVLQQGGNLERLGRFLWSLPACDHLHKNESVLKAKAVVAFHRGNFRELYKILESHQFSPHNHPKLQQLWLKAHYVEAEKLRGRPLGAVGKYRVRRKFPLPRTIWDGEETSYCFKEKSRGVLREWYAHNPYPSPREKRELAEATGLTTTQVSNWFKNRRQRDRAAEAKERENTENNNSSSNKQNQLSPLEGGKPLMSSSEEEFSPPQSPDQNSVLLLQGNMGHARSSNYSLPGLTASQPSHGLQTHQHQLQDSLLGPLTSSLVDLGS
UniProt O00167: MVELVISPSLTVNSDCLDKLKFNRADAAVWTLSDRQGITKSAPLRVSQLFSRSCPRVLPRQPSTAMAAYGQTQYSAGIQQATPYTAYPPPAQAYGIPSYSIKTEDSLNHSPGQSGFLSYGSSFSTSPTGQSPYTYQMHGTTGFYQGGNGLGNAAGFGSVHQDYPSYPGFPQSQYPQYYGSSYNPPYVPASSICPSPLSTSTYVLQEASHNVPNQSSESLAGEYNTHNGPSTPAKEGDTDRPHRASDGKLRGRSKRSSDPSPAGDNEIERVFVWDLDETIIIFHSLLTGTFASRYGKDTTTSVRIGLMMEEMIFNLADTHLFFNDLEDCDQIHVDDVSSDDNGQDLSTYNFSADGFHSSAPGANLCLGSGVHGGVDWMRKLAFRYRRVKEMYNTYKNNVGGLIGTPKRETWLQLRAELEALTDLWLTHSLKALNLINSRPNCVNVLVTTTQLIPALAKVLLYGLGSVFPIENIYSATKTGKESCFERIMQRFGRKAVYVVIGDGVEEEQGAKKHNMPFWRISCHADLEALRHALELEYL

The entries are a selection whose mix differs from that of the whole data set. Active and inactive are the calls of the source. Rule as the data show it: active = activity change below about -65%; inconclusive = mostly about -30% to -63%; inactive = weaker than that.
% is scaled to controls: 0 for no effect and ±100 for the full control effect.

The experiment has as its target Homeobox protein SIX1 (Homo sapiens) + Protein phosphatase EYA2 (Homo sapiens) (UniProt Q15475+O00167). Put plainly: qHTS Assay for Inhibitors of the Six1/Eya2 Interaction. Particulars: AlphaScreen GST-Six1/His-Eya2 binding, biochemical; active compounds read low. From the text: Its expression is low or undetectable in normal adult breast tissue but the gene is over-expressed in 50% of primary breast tumors and 90% of metastatic lesions. […] Similar to Six1, Eya2 is also not expressed in most normal adult tissues, but is reexpressed in cancers. The Six1-Eya interaction is essential for proliferation during embryonic development, and both Six1 and Eya2 have been independently implicated in the same types of cancer. Because Six1 and Eya2 are embryonic genes with little expression in adult tissues, inhibitors of their expression/activity are likely to have limited side effects. Our goal is to identify inhibitors of the Six1/Eya interaction for potential cancer therapy. To this end, we have developed a homogenous AlphaScreen assay targeting the Six1/Eya interaction. We performed a large scale HTS of the Molecular Libraries Small Molecule Repository (MLSMR) to identify inhibitors of the Six1/Eya interaction as potential anti-cancer therapeutics. Compounds identified can also be used as chemical probes to better understand the biological functions of Six1 and Eya. […]
The first step of the 5 uL AlphaScreen assay is to dispense assay buffer (50 mM Tris, pH 8.0, 300 mM NaCl, 0.05% BSA, 0.02% Tween 20, 1 mM TCEP) into a Greiner 1536 white solid bottom microtiter plate (789175-F). […] The plate is read using a Perkin Elmer Envision using an AlphaScreen protocol.
Background: Quantitative high-throughput screening tests each substance at several concentrations.
As for `c1ccc(-c2nn[nH]n2)c(-c2nn[nH]n2)c1`, the activity change was active: -80.8%.
